Data as given in patent US10358453B2, “Antiviral compounds” (priority 2015, dated 2019).

Amino acid sequences for entries named in this document (tags omitted). A change or cut given only in a name is not applied to a line headed by its entry.
UniProt P28887: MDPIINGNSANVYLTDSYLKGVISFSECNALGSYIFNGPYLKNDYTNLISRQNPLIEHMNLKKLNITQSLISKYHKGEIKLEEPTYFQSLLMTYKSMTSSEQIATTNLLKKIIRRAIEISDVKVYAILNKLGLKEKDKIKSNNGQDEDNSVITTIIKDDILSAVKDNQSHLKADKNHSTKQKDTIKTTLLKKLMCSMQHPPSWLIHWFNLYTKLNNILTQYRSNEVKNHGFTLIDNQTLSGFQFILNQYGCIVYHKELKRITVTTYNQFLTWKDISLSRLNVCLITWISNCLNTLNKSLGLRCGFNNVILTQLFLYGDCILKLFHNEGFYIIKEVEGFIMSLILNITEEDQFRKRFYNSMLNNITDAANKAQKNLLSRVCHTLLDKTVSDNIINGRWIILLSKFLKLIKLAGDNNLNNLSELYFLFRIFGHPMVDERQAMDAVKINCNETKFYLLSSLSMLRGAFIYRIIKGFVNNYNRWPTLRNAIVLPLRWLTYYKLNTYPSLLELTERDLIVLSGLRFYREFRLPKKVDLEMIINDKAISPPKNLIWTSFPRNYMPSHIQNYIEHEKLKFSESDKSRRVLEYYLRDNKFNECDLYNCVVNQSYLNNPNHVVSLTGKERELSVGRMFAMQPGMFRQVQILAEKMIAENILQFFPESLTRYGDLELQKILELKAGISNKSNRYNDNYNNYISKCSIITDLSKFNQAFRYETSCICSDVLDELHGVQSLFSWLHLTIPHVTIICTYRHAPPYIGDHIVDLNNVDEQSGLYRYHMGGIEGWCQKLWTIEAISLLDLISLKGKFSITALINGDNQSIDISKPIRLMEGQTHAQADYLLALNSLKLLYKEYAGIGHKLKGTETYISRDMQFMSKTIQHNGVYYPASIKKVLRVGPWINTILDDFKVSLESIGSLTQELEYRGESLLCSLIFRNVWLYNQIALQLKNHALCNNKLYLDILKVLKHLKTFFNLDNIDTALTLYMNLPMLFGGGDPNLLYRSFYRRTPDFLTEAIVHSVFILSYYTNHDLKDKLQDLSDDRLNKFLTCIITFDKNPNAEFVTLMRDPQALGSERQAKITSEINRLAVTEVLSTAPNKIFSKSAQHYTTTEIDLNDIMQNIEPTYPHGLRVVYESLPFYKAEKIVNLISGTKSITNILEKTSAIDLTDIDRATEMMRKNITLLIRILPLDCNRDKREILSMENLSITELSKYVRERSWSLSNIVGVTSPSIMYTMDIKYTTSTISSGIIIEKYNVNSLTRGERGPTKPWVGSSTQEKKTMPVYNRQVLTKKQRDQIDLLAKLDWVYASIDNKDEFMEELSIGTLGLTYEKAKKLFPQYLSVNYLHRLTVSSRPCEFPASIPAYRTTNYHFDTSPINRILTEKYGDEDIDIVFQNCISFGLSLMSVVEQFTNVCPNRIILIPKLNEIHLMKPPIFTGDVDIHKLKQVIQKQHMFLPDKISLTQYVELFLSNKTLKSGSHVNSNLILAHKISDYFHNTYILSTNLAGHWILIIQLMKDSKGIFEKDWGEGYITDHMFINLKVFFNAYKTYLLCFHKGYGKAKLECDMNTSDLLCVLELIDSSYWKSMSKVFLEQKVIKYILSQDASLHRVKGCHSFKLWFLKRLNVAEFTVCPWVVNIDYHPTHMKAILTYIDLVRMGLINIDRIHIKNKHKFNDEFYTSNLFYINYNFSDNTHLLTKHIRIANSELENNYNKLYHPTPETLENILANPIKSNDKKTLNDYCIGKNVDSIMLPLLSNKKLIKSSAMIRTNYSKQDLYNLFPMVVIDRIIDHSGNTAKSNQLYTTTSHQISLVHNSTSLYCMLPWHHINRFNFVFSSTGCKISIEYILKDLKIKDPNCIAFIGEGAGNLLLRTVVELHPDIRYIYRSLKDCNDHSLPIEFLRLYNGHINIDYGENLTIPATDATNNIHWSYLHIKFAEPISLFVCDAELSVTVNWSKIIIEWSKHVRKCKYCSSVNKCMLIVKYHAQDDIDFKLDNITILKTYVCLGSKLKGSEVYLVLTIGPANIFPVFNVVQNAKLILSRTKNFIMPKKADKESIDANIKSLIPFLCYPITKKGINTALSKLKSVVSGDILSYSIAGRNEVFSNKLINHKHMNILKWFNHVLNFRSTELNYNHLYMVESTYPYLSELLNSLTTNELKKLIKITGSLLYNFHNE

Molecular target: recombinant RSV complex (Human respiratory syncytial virus A, UniProt P28887)
Assay: RSV polymerase inhibition assay
Format: biochemical
Details: IC50, 10 nM recombinant RSV complex, 2 h at 30° C.; Table E = <1 μM, Table F = <50 μM
Procedure: Standard RSV polymerase assays were conducted in the presence of 10 nM recombinant RSV complex in a reaction buffer containing Tris-HCl pH7.5, 6 mM MgCl2, and other additives and substrates including RNA oligonucleotides and radionucleotides. Standard reactions were incubated in 96-well plate format for 2 h at 30° C., in the presence of increasing concentration of inhibitor. The reaction was stopped with 90 μL of 0.1M EDTA, and the reaction product was transferred to a “reading” 96-well plate. After washing of the plate, radiolabeled RNA products were detected according to standard procedures with a Trilux Topcount scintillation counter. The compound concentration at which the enzyme-catalyzed rate was reduced by 50% (IC50) was calculated by fitting the data to a non-linear regression (sigmoidal).

SMILES: C[C@@]1(N)COc2c1cc([C@](O)(CNC(=O)c1ccc(Cl)s1)C(F)(F)F)nc2-c1ccc(F)cc1 [Compound 110]
- IC50: < 1000 nM
